# Data taken from patent US10787419B2, “Cannabinoid receptor mediating iminopyrazole compounds” (The United States of America, as represented by the …, priority 2012, dated 2020).
# Amino acid sequences for entries named in this document (tags omitted).
# UniProt P47746, whole entry: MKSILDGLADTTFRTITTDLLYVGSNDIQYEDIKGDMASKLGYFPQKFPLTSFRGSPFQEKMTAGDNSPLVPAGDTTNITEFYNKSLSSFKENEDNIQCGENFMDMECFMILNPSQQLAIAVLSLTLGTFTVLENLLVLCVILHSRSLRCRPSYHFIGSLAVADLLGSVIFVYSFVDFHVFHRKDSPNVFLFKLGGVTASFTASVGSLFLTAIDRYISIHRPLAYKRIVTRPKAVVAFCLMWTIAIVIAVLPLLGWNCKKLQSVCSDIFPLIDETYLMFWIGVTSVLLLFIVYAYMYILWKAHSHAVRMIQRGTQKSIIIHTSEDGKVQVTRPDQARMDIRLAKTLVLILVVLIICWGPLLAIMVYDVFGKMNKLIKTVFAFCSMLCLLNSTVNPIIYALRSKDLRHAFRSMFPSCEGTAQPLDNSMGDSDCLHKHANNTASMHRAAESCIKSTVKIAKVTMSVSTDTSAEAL
# Biological target: CB1 (Mus musculus (Mouse), UniProt P47746)
# Assay: radioligand displacement assay in mouse brain membranes (Ki CB1)
# Type: binding
# Conditions: read-out: Ki CB1; Table 2
smiles,measurement,value
CC(C)(C)C(=N)NC(=NS(=O)(=O)c1ccc(Cl)cc1)N1C[C@H](c2ccccc2)C(c2ccc(Cl)cc2)=N1,Ki,3.6 nM
